Literature values, collected in US4795627A.

Test system: high affinity transport system for choline
Conditions: in vivo

## C[N+]1(C)CCOC(O)(c2ccc(-c3ccc(C4(O)C[N+](C)(C)CCO4)cc3)cc2)C1 (centres unmarked)
  Duration / reversibility of effect: short-lived, and is reversible
Treated animals
  Inhibition of high affinity transport system for choline: Potent inhibition
